Reference: publication PMC5587394
pKd: −log10 of the molar value.

Legend:
FGFR1c (Homo sapiens) = FGFR1c (Homo sapiens) (UniProt P11362); conditions: cited from earlier work
FGF9 (Homo sapiens) = FGF9 (Homo sapiens) (UniProt P31371); assay: sedimentation equilibrium ultracentrifugation; conditions: cited from earlier work
[1] = target: FGF9^WT (human FGF9, residues 35-208) (human) (UniProt P31371); assay: SEC-MALS

Substance | pKd (FGFR1c (Homo sapiens)) | pKd (FGF9 (Homo sapiens)) | stoichiometry N [1]
FGF9 (from UniProt P31371) | 6.05 | 6.17 | 
FGF9^WT (human FGF9, residues 35-208) (from UniProt P31371 35-208) (ligand) |  |  | 2
